# Earlier results as cited in patent US10314839B2, “Diversion-resistant opioid formulations” (priority 2014, dated 2019).
# Columns and labels:
# [1] = test system: opioid receptor
# [2] = test system: opioid receptor; remark: listed apart in the source
structure (smiles),measurement,setting,value
C=CCN1CC[C@]23c4c5ccc(O)c4O[C@H]2C(=O)CC[C@@]3(O)[C@H]1C5 [naloxone],Effect on morphine-like opioid agonists,"[1]; 0.4-0.8 mg intramuscularly or intravenously, in man",prevent or reverse the effects of morphine-like opioid agonists
same,Block of the effect of heroin,[1]; One mg intravenously vs 25 mg of heroin,completely block the effect of 25 mg of heroin
same,Opioid agonist effects / properties,[2],almost devoid of agonist effects
